High-throughput results (PubChem BioAssay)
This is a sample that favours compounds with a hit; in the whole collection about 2.2% have one here.
ERp5 inh: inhibitors of ERp5-driven insulin aggregation, primary screen, biochemical, turbidity, absorbance 650 nm, single point. Protein disulfide-isomerase A6 (Homo sapiens), Q15084. 90 min. inhibition, % at 9.99 µM. 350,000 compounds, 0.05% hits. AID 651711, 2012;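 active means mean replicate inhibition above about 25%, with every replicate also reaching it, limit read from the data, passing the limit was not always enough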
S100A4 MyoIIA: inhibitors of S100A4-myosin IIA peptide binding, primary screen, biochemical, fluorescence polarization, TAMRA-MyoIIA peptide; AID 652163, 2013; Protein S100-A4 (Homo sapiens), P26447; 360,000 compounds, 0.14% hits; inhibition, % at 10.7 µM;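 active means mean inhibition of at least 70% across replicates, with every replicate also reaching that level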
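Material: S100A4 monomer protein / Buffer or medium: 50 mM HEPES pH 7.2, 10 mM CaCl2, 100 mM KCl / Times: 5 min incubation before reading / Benchmarks: neutral control DMSO, positive control TFP / Reagent: labelled myosin peptide probe, 5 nM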
PDI inh: inhibitors of human PDI, primary screen, biochemical, turbidity, single point, plate reader; Protein disulfide-isomerase (Homo sapiens), P07237; PDI insulin aggregation turbidity, A650, 90 min; inhibition, % at 10 µM; 350,000 compounds, 0.052% hits; AID 588391, 2011;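 active means mean inhibition across replicates of 30% or more, whatever share of single replicates reach that level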
SIRT5 block: SIRT5 desuccinylase inhibitors, primary screen, biochemical, fluorescence imaging, single point, set 5 | inhibition, % at 15 µM | AID 652115, 2013 | Purified SirT5, succinyl-peptide AMC, trypsin-coupled fluorescence | 330,000 compounds, 1.1% hits | NAD-dependent protein deacylase sirtuin-5, mitochondrial (Homo sapiens), Q9NXA8; in the data active means inhibition above about 15%
UUG fidelity: alters start codon recognition fidelity in yeast. S. cerevisiae UUG-firefly luciferase reporter, luminescence/redox ratio. AID 602363. activity score, % at 18.7 µM. hit rate 0.13% among 350,000;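 active = replicate mean at a twofold rise or more, about +100% in these data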;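 note: firefly luciferase made from a UUG start codon reports start codon fidelity; reporter light over untreated wells divided by growth signal over untreated wells; some hits fall short of that in this replicate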
FGF22 binding: binders of human FGF22 protein, primary screen, FGF22 synaptogenesis inhibitor project, biophysical, thermal shift, single point; recombinant FGF22 thermal shift, SYPRO orange fluorescence; percent of sucrose octasulfate shift, DMSO zero; activity (Tm shift, normalised), % at 9.99 µM; 340,000 compounds, 1.5% hits; AID 651658, 2012;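 active means mean Tm shift, scaled 0 neutral to 100 positive control, at about 1.3% or above, every replicate too, limit read from the data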
Of the large screens only hits and unclear results are named; the others gave an inactive call.

Sequences of proteins named here, by UniProt entry; tags and fusion partners are left off.
Protein disulfide-isomerase A6 (Homo sapiens), Q15084, UniProt Q15084, whole entry, looked up: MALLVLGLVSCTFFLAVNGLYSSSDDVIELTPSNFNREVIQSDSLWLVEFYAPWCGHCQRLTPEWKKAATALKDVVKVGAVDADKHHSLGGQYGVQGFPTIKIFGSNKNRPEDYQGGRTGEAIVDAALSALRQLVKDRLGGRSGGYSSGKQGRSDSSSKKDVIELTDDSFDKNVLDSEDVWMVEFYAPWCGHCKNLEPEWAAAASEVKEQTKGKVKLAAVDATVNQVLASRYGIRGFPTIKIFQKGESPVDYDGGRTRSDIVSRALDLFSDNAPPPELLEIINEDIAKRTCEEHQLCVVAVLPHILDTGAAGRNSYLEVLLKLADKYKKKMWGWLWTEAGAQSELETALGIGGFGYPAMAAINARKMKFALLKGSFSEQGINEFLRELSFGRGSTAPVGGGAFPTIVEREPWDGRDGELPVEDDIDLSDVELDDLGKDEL

CN1CCN(C(=O)c2cc(Oc3c(F)c(F)c(F)c(F)c3F)cc(C(=O)N3CCN(C)CC3)c2)CC1	FGF22 binding 44
CCCNC(=O)N1CC2(CN(Cc3ccc(OC)cc3)C2)c2c(n(C)c3cc(OC)ccc23)[C@H]1CO	none (no result: ERp5 inh, S100A4 MyoIIA, PDI inh, SIRT5 block, UUG fidelity)
Cn1c(Cn2c(=O)sc3ccccc32)nnc1SCC(=O)Nc1ccc2c(c1)OCO2	FGF22 binding 44 (no result: PDI inh)
CCCn1c(SCC(=O)Nc2ccc3c(c2)OCO3)nc2c1c(=O)n(C)c(=O)n2C	SIRT5 block 25 (no result: FGF22 binding)
Cc1cc(C)cc(NC(=O)CSc2nnc(Cn3c(=O)sc4ccccc43)n2C)c1	FGF22 binding 43 (no result: PDI inh, SIRT5 block)
C[C@@H]1CN([C@@H](C)CO)C(=O)c2cc(NC(=O)CCCN(C)C)ccc2O[C@@H]1CN(C)Cc1ccc(C(=O)O)cc1	none (no result: PDI inh, UUG fidelity)
N#C/C(=C\c1ccc(OCc2ccc(C(=O)O)cc2)cc1)C(=O)NCc1ccccc1	none
Cc1nc(S/C(=C/c2ccc(OCc3ccc(C(=O)O)cc3)cc2)C(=O)O)n[nH]1	FGF22 binding 1.5 (no result: UUG fidelity)
O=C1/C(=C\c2cccc(O)c2O)SC(=S)N1Cc1ccccc1	none
O=C1/C(=C\c2cc([N+](=O)[O-])ccc2O)SC(=S)N1Cc1ccc(Cl)cc1	SIRT5 block 16
Cn1c(N)c(S(=O)(=O)NCc2ccccc2)c(=O)n(C)c1=O	none
Cn1c(N)c(S(=O)(=O)NCc2ccc(Cl)cc2)c(=O)n(C)c1=O	FGF22 binding 44 (no result: UUG fidelity)
Fc1cccc(C2NC(=S)NC3=C2N2CCC3CC2)c1 (stereo not drawn)	SIRT5 block 21 (no result: FGF22 binding)
S=C1NC2=C(C(c3ccc(Br)cc3)N1)N1CCC2CC1 (stereo not drawn)	none (no result: ERp5 inh, S100A4 MyoIIA, SIRT5 block, FGF22 binding)
COc1ccc2c(c1OC)C(=O)N1N=C(c3ccc(F)cc3)CC21 (stereo not drawn)	FGF22 binding 44 (no result: UUG fidelity)
Cc1ccc(/C=N/NC(=O)c2cc(-c3cccnc3)nc3ccccc23)cc1	FGF22 binding 43 (no result: UUG fidelity)
O=C(N/N=C/c1ccc(Cl)cc1)c1cc(-c2cccnc2)nc2ccccc12	none
COc1ccc(NC(=O)N2CC(=O)N3[C@H](C2)[C@H](c2ccc(C#CCC4CCCC4)cc2)[C@@H]3CO)cc1	SIRT5 block 15 (no result: PDI inh, UUG fidelity, FGF22 binding)
COc1cccc(NC(=O)N2CC(=O)N3[C@H](C2)[C@@H](c2ccc(C#CC4CCCC4)cc2)[C@@H]3CO)c1	SIRT5 block 16 (no result: PDI inh, UUG fidelity, FGF22 binding)
COc1ccc(NC(=O)N2CC(=O)N3[C@@H](CO)[C@H](c4ccc(C#CCC5CCCC5)cc4)[C@@H]3C2)cc1	none (no result: PDI inh, UUG fidelity, FGF22 binding)
CCC(=O)N1CC(=O)N2[C@H](C1)[C@@H](c1ccc(C#CC3CCCC3)cc1)[C@@H]2CO	none (no result: PDI inh, UUG fidelity, FGF22 binding)
COc1cccc(NC(=O)N2CC(=O)N3[C@H](C2)[C@@H](c2ccc(C#CCC4CCCC4)cc2)[C@@H]3CO)c1	SIRT5 block 21 (no result: PDI inh, UUG fidelity)
COc1cccc(NC(=O)N2CC(=O)N3[C@H](C2)[C@H](c2ccc(C#CC4CCCC4)cc2)[C@@H]3CO)c1	none (no result: PDI inh, UUG fidelity)
CCC(=O)N1CC(=O)N2[C@H](CO)[C@H](c3ccc(C#CC4CCCC4)cc3)[C@H]2C1	S100A4 MyoIIA 136 (no result: PDI inh, UUG fidelity, FGF22 binding)
O=C(C[C@@H]1CC[C@H]2[C@@H](COC[C@H](O)CN2Cc2ccc(Oc3ccccc3)cc2)O1)Nc1nccs1	none (no result: PDI inh, UUG fidelity)
O=C(C[C@@H]1C=C[C@@H](NC(=O)c2ccc(F)cc2)[C@H](CO)O1)NCCc1ccncc1	none (no result: PDI inh)
C[C@H](CO)N1C[C@H](C)[C@@H](CN(C)S(=O)(=O)c2ccccc2)Oc2ccc(NC(=O)NC3CCCCC3)cc2CC1=O	none (no result: PDI inh)
CC(=O)N1CC(=O)N2[C@H](CO)[C@@H](c3ccc(-c4ccc(C#N)cc4)cc3)[C@H]2C1	S100A4 MyoIIA 129 (no result: PDI inh, UUG fidelity, FGF22 binding)
CC(=O)N1CC(=O)N2[C@H](C1)[C@@H](c1ccc(-c3ccc(C#N)cc3)cc1)[C@@H]2CO	none (no result: PDI inh, UUG fidelity, FGF22 binding)
Cc1cc(NC(=O)c2ccccc2F)nc2c1c(=O)oc1ccccc12	FGF22 binding 44
